# Results as given in PubChem BioAssay AID1001 (Sanford-Burnham Center for Chemical Genomics, 2008).
# The chains behind the UniProt entries cited, without tags or fusion partners. Where a name states a change or a piece, a line headed by the entry shows the natural chain unless it says otherwise.
# UniProt P05186: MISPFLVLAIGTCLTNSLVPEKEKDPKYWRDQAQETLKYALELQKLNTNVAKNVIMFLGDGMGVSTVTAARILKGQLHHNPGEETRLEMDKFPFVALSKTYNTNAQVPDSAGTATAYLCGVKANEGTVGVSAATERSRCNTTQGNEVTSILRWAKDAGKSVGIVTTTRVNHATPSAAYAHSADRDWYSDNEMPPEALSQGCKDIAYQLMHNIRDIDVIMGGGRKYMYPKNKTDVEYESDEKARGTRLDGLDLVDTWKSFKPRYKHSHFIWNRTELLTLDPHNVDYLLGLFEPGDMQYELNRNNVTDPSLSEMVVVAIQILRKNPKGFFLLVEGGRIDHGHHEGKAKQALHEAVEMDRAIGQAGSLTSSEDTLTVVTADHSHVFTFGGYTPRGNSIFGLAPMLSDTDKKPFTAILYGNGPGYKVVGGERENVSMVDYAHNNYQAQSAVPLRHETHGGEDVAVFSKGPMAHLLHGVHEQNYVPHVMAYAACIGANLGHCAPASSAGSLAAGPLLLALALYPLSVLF
# Some of the results follow. Results with a measured potency or affinity are listed apart. Active and inactive are the calls of the source. The rule behind the calls is not given here.
# Biological target: Alkaline phosphatase, tissue-nonspecific isozyme (Homo sapiens) (UniProt P05186)
# Assay: human TNAP enzyme activators, primary screen, biochemical, luminescent, no phosphate acceptor, uHTS (AID 1001)
# Conditions: purified TNAP, luminescent activation assay, at 20 µM, hits give high values
row,SMILES,activation fold
1,COP1(=S)c2c(C)nn(CCC#N)c2N=C(c2ccc(F)cc2)N1C (stereo unspecified),inactive: 1
2,CCC(C)N(CC(C)C)C(=S)SC(NC(C)=O)C(Cl)(Cl)Cl (stereo unspecified),inactive: 0.9
3,Cc1cc(SC(NC(=O)c2ccccc2)C(Cl)(Cl)Cl)nc(C(C)C)n1 (stereo unspecified),inactive: 1.3
4,Cc1cc(SC(NC=O)C(Cl)(Cl)Cl)ncn1 (stereo unspecified),inactive: 1
5,O=[N+]([O-])c1cc([N+](=O)[O-])c(-c2ccn[nH]2)s1,inactive: 0.9
6,ClCCSc1nnc(-c2cccnc2)o1,inactive: 1
7,COc1ccc2nc(NP(=O)(c3ccccc3)c3ccccc3)sc2c1,inactive: 1.2
8,Cc1c2c(nc3ccccc13)SC(C(Cl)Cl)C2 (stereo unspecified),inactive: 1
9,Cc1cc(=O)[nH]c(N[N+](=O)[O-])n1,inactive: 1
10,COc1cc(C2NCCC3(OCCO3)C2(C)C)cc(OC)c1OC (stereo unspecified),inactive: 1.2
11,CCOP(=O)(Nc1cccc2ccccc12)OCC,inactive: 1
12,Cc1ccc(NCCc2c([N+](=O)[O-])cc([N+](=O)[O-])cc2[N+](=O)[O-])cc1,inactive: 1
13,O=P(Nc1nccs1)(Oc1ccccc1)Oc1ccccc1,inactive: 1
14,CC1CCC(C(C)C)C(OP(=O)(Nc2ccccn2)c2ccccc2)C1 (stereo unspecified),inactive: 1.2
15,O=P1(Nc2ncccn2)COc2ccccc2OC1,inactive: 0.9
16,O=P1(Nc2ccccn2)COc2ccccc2OC1,inactive: 1
17,CC(C)/C=N\N=C(\N)N[N+](=O)[O-],inactive: 1
18,CC(C)C(=O)NC(Sc1ccccc1)C(Cl)(Cl)Cl (stereo unspecified),inactive: 1
19,O=P(Nc1ccccn1)(c1ccc(Br)cc1)c1ccc(Br)cc1,inactive: 1
20,CC(=O)NC(SC(=S)N(C)C)C(Cl)(Cl)Cl (stereo unspecified),inactive: 1
21,c1ccc(-c2nn[nH]n2)c(-c2nn[nH]n2)c1,inactive: 1

row,SMILES,activation fold
1,CCOC(=O)NC(Sc1ccccc1)C(Cl)(Cl)Cl (stereo unspecified),inactive: 1
2,O=C(NC1CCS(=O)(=O)C1)NP(=S)(Oc1ccccc1)Oc1ccccc1 (stereo unspecified),inactive: 1.2
3,O=c1c2cc([N+](=O)[O-])ccc2[nH]c2c([N+](=O)[O-])cc([N+](=O)[O-])cc12,inactive: 0.7
4,CCC(=O)N1C2C3N(C(=O)CC)C1C1N(C(=O)CC)C(C(N1C(=O)CC)N3C(=O)CC)N2C(=O)CC,inactive: 1
5,CC(=O)NC(SC(=S)N(CC(C)C)CC(C)C)C(Cl)(Cl)Cl (stereo unspecified),inactive: 0.9
6,CC(C)(C)C(=O)NC(Sc1ccccc1)C(Cl)(Cl)Cl (stereo unspecified),inactive: 1
7,CC(=O)Nc1ccc(Oc2c([N+](=O)[O-])cc([N+](=O)[O-])cc2[N+](=O)[O-])cc1,inactive: 1
8,Clc1ccc(Cl)c(NC2=NCC(CBr)S2)c1 (stereo unspecified),inactive: 1.3
9,NC(=O)c1cc([N+](=O)[O-])cc([N+](=O)[O-])c1N,inactive: 1
10,O=C(NC(Sc1ccncn1)C(Cl)(Cl)Cl)c1ccccc1 (stereo unspecified),inactive: 1.2
11,Cc1c2non([O-])c-2c(C)[n+](=O)[n+]1[O-],inactive: 1
12,CC(C)CC(=O)NC(Sc1ccc(Cl)cc1)C(Cl)(Cl)Cl (stereo unspecified),inactive: 0.9
13,Cc1cc(SC(NC(=O)c2ccc(F)cc2)C(Cl)(Cl)Cl)ncn1 (stereo unspecified),inactive: 1
14,CCOP(=O)(Nc1ccccc1)OCC,inactive: 1
15,CCN(N=Nc1nonc1N)c1nonc1N,inactive: 1
16,Cc1ccc(NP(=O)(Oc2ccccc2)Oc2ccccc2)nc1,inactive: 1
17,O=[N+]([O-])c1cc([N+](=O)[O-])c(CCNc2ccccc2)c([N+](=O)[O-])c1,inactive: 1
18,CC(=O)N1C2C3N(C(C)=O)C1C1N(C(C)=O)C(C(N1C(C)=O)N3C(C)=O)N2C(C)=O,inactive: 1
19,COc1ccc(C2=NCC(CBr)S2)cc1 (stereo unspecified),inactive: 1
20,CC1CCN(C(=O)Oc2c(Cl)cc(Cl)c3cccnc23)CC1,inactive: 1
